Results on one molecule are retold here after BindingDB's records for doi:10.1016/S0893-133X(01)00298-6 (Eli Lilly, 2001).

As usually defined, the Ki is the dissociation constant of the complex between target and ligand, obtained from inhibition or displacement. Higher therefore signals a looser hold on the target.

The structures appear in SMILES notation.

This test concerns the target Norepinephrine transporter (Rattus norvegicus, UniProt Q9JIA2).

On to `COc1ccc(C(CN(C)C)C2(O)CCCCC2)cc1` (stereo unspecified) [NSC_62923], for which the inhibition constant (Ki) is 3.19 µM.
